Source: ChEMBL document CHEMBL1125797, “Synthesis, characterization and myocardial uptake of cationic bis(arene)technetium(I) complexes” (J Med Chem, 1991)

Tests used:
[1] = tested on: Rattus norvegicus; test: (§1) Biodistribution of compound in rat brain after 5 min of administration; assay type: ADME, organism-based; settings: in vivo
Outline: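 Female Sprague-Dawley rats (150–200 g) received the complex in normal saline (~12.5 μCi/mL) through a lateral tail vein at ~25 μCi/kg. Rats were killed by cervical dislocation 5 min after injection. Tissues were washed with saline, blotted, weighed and γ-counted to give percent injected dose/g tissue.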

[2] = tested on: Rattus norvegicus; test: as §1; assay type: ADME, organism-based; settings: in vivo; remark: listed apart in the source

| Dose/g [2] | Substance | Dose/g [1] |
| --- | --- | --- |
|  | Bis(toluene)technetium | 0.01% |
| 0.03% | BIS(TOLUENE)TECHNETIUM |  |
|  | Bis(m-xylene)technetium | 0.01% |
